Values quoted from earlier work as cited in paper PMC4703549 (Cancer research, 2015).

Tested on: TNK2
Details: cited from earlier work

Cc1nc(Nc2ncc(C(=O)Nc3c(C)cccc3Cl)s2)cc(N2CCN(CCO)CC2)n1 [dasatinib, N-(2-chloro-6-methyl-phenyl)-2-(6-(4-(2-hydroxyethyl)-piperazin-1-yl)-2-methylpyrimidin-4-ylamino)thiazole-5-carboxamide]
binding to TNK2: low nanomolar range
